In patent publication US20240409594A1, “PHOTOA[…] CHANNEL MODULATOR” (INSTITUT NATIONAL DE LA SANTÉ ET DE LA RECHERCHE MÉDICALE, priority 2021, published 2024) one finds IC50 of hNaV1.4 current inhibition data, which are given here for one substance.

In the experiment the target is human NaV1.4 channel (human) (UniProt P35499). Kind of experiment: cell-based or functional assay.

Take Jingzhaotoxin V (peptide): the IC50 of hNaV1.4 current inhibition worked out at 50.1 nM.
